Test results as given in ChEMBL document CHEMBL2311248, “Discovery of potent myeloid cell leukemia 1 (Mcl-1) inhibitors using fragment-based methods and structure-based design” (J Med Chem, 2013).

target: Induced myeloid leukemia cell differentiation protein Mcl-1 (Homo sapiens, UniProt Q07820)

Row | Compound | Ki [µM]
1 | O=C(O)c1sc2ccccc2c1Cl | 131
2 | O=C(O)c1sc2cc(Cl)ccc2c1Cl | 59
3 | O=C(O)c1sc2cccc(Cl)c2c1Cl | 22
4 | Cc1cc(OCCCc2c(C(=O)O)sc3cccc(Cl)c23)cc(C)c1Cl | 1.3
5 | O=C(O)c1sc2cccc(Cl)c2c1CCCOc1cccc2ccccc12 | 1.6
6 | Cc1cc(OCCCc2c(C(=O)O)sc3cc(Cl)ccc23)cc(C)c1Cl | 0.25
7 | Cc1cc(OCCCc2c(C(=O)O)sc3c(Cl)cccc23)cc(C)c1Cl | 0.75
8 | O=C(O)c1sc2c(Cl)cccc2c1CCCOc1cccc2ccccc12 | 0.72
9 | Cc1cc(OCCCc2c(C(=O)O)oc3ccccc23)cc(C)c1Cl | 3
10 | O=C(O)c1oc2ccc(Cl)cc2c1CCCOc1cccc2ccccc12 | 2.5
11 | Cc1cccc(OCCCc2c(C(=O)O)[nH]c3ccccc23)c1 | 1.9
12 | Cc1ccc(OCCCc2c(C(=O)O)[nH]c3ccccc23)cc1 | 16
13 | O=C(O)c1[nH]c2ccccc2c1CCCOc1ccc(Cl)cc1 | 9.8
14 | O=C(O)c1[nH]c2ccccc2c1CCCOc1ccc(C(F)(F)F)cc1 | 9.9
15 | Cc1cc(OCCCc2c(C(=O)O)[nH]c3ccccc23)ccc1Cl | 0.38
16 | CCc1cc(OCCCc2c(C(=O)O)[nH]c3ccccc23)ccc1Cl | 1.1
17 | Cc1cc(OCCCc2c(C(=O)O)[nH]c3ccccc23)cc(C)c1Cl | 0.3
18 | O=C(O)c1[nH]c2ccccc2c1CCCOc1cccc(-c2ccccc2)c1 | 7.7
19 | O=C(O)c1[nH]c2ccccc2c1CCCOc1cccc(Oc2ccccc2)c1 | 5.2
20 | O=C(O)c1[nH]c2ccccc2c1CCCOc1ccc(Oc2ccccc2)cc1 | 6.4

Row | Compound | Ki [µM]
21 | O=C(O)c1[nH]c2ccccc2c1CCCOc1ccc2ccccc2c1 | 7.5
22 | O=C(O)c1[nH]c2ccccc2c1CCCOc1ccc(Cl)c2ccccc12 | 0.48
23 | O=C(O)c1[nH]c2ccccc2c1CCCOc1cccc2c1CCCC2 | 0.3
24 | Cc1cc(OCCCc2c(C(=O)O)[nH]c3cccc(Cl)c23)ccc1Cl | 0.81
25 | Cc1cc(OCCCc2c(C(=O)O)[nH]c3cccc(Cl)c23)cc(C)c1Cl | 0.16
26 | Cc1cc(OCCCc2c(C(=O)O)[nH]c3cc(Cl)ccc23)ccc1Cl | 0.19
27 | O=C(O)c1[nH]c2cc(Cl)ccc2c1CCCOc1cccc2ccccc12 | 0.075
28 | Cc1cc(OCCCc2c(C(=O)O)n(C)c3ccccc23)cc(C)c1Cl | 0.18
29 | Cn1c(C(=O)O)c(CCCOc2cccc3ccccc23)c2ccccc21 | 0.26
30 | Cc1c(C(=O)O)oc2ccc(Cl)cc12 | 52
31 | Cc1c(C(=O)O)oc2cc(Cl)ccc12 | 23
32 | Cc1c(C(=O)O)oc2c(C)cccc12 | 102
33 | O=C(O)c1cc2c(Br)cc(Cl)cc2o1 | 90
34 | Cn1c(C(=O)O)cc2cc(Br)ccc21 | 81
35 | Cc1cccc2c(-c3ccccc3)c(C(=O)O)[nH]c12 | 136
36 | Cc1ccccc1OCCCc1c(C(=O)O)[nH]c2ccccc12 | 15
37 | O=C(O)c1[nH]c2ccccc2c1CCCOc1ccccc1C(F)(F)F | 8.8
38 | Cc1ccc2c(Cl)c(C(=O)O)sc2c1 | 40
39 | Cn1c(C(=O)O)cc2ccccc21 | 160
